Laboratory results taken from patent US9040707B2, “Bicyclic thiazoles as allosteric modulators of mGluR5 receptors” (Janssen Pharmaceutica NV, priority 2009, dated 2015).

Sequences of proteins named here, by UniProt entry; tags and fusion partners are left off. Residues count along the entry.
UniProt P41594, 21-1180 isoform P41594-2 limits assumed: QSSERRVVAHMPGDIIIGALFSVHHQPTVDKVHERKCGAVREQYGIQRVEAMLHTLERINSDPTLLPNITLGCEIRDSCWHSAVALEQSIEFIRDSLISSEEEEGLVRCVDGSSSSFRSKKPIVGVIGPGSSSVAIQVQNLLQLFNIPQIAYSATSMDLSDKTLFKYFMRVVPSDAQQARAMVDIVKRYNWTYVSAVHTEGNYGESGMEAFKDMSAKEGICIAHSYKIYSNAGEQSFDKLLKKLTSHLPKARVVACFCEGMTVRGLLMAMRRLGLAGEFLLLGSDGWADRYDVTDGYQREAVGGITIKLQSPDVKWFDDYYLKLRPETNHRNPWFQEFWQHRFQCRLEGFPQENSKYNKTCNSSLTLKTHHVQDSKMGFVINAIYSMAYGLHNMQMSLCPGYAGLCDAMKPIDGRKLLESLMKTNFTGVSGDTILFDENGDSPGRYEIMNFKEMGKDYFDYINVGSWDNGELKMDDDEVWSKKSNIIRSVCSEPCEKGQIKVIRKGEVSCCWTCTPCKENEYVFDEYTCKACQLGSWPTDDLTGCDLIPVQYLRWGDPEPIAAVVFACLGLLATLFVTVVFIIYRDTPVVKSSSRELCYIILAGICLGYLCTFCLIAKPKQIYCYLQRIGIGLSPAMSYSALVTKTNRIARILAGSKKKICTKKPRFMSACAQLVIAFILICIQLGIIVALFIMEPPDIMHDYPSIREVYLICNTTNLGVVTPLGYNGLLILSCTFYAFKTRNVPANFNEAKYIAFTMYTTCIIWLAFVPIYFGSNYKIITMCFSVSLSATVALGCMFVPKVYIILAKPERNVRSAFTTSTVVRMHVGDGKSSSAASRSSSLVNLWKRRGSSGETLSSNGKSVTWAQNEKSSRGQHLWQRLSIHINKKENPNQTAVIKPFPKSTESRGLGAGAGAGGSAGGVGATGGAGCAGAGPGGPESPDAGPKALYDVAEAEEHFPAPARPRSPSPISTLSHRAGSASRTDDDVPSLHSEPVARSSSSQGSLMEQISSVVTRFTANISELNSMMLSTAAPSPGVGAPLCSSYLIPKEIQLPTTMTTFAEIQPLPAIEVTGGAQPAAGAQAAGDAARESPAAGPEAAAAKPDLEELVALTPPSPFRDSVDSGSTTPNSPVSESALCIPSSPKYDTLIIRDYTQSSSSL

Molecular target: T1, human mGluR5a receptor (Homo sapiens, UniProt P41594)
T1 construct: host or cells: HEK293A (monoclones H10H and H12H)
Experiment: Functional Assay 2: Ca2+ mobilization, HEK cells with human mGluR5a receptor (H10H cell line)
Assay type: cell-based
Conditions: HEK293
Protocol: Human mGluR5a cDNA in pCMV6-XL6 mammalian expression plasmid was purchased from OriGene Technologies, Inc. (catalogue number SC326357) and subcloned into pcDNA3.1(−). […] Monoclones were named for the species (“H” for human) plus the location on the plate (e.g. “10H”).
The following day, the growth medium was removed and the cells were washed with assay buffer containing 1× Hank's balanced salt solution (Invitrogen, Carlsbad, Calif.), 20 mM HEPES, 2.5 mM probenecid, pH 7.4 and left with 20 μL of this reagent. Following this step, the cells were loaded with calcium indicator dye, fluo-4 AM, to a final concentration of 2 μM and incubated for 40-45 min at 37° C. The dye solution was removed and replaced with assay buffer. Cell plates were held for 10-15 min at room temperature and were then loaded into the Functional Drug Screening System 6000 (FDSS 6000, Hamamatsu, Japan).
After establishment of a fluorescence baseline for about 3 seconds, the compounds of the present invention were added to the cells, and the response in cells was measured. 2.3 minutes later an EC20 concentration of the mGluR5 receptor agonist glutamate was added to the cells, and the response of the cells was measured for about 1.7 minutes. […] Calcium fluorescence measures were recorded as fold over basal fluorescence; raw data was then normalized to the maximal response to glutamate. […]

Emax: 75%
SMILES: CCN1CCc2nc(COc3ccccc3)sc2C1=O [Compound 56, 5-ethyl-6,7-dihydro-2-(phenoxymethyl)-thiazolo[5,4-c]pyridin-4(5H)-one]
